The values that follow come from paper PMC9617852, “In vitro and in vivo assessment of the antioxidant potential of isoxazole derivatives” (Scientific Reports, 2022).

By UniProt entry, the sequences of proteins in these tests, tags left out. Residues count along the entry.
UniProt P00591, whole entry: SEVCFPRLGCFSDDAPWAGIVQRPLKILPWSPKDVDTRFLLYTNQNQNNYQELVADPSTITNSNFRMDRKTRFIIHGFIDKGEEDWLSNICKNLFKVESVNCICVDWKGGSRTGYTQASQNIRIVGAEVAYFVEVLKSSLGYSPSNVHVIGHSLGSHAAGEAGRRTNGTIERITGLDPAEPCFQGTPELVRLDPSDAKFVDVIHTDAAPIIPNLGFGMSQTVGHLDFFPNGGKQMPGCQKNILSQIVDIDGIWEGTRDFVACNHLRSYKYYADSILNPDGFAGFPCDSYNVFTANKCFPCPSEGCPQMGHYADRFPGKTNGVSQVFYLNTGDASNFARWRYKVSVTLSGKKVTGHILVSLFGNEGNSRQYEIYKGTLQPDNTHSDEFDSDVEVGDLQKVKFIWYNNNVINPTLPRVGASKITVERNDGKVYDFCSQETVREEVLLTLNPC
UniProt P00690, 16-511 limits assumed: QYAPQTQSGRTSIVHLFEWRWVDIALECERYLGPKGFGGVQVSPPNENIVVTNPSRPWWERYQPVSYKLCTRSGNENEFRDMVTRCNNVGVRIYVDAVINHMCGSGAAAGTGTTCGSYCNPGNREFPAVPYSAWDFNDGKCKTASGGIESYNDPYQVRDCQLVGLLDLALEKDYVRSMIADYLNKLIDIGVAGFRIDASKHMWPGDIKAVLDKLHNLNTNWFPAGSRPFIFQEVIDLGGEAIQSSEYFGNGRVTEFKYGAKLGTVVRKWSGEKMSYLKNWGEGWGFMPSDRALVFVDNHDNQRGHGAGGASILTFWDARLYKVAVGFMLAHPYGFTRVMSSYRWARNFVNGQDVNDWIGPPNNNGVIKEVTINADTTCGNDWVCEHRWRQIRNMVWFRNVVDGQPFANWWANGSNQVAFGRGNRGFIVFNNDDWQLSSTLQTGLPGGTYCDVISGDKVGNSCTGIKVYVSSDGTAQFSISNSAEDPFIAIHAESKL

Test [1] in a line: DPPH free radical scavenging assay (in vitro antioxidant activity). The following applies: DPPH in methanol, 30 min in the dark at 25 °C, absorbance 517 nm. (DPPH is a stable violet radical that fades when it is reduced.)
The target in test [2] is porcine pancreatic lipase (Sus scrofa, UniProt P00591). Kind of test: Porcine pancreatic lipase inhibition assay. Format: biochemical. The following applies: substrate p-nitrophenyl butyrate, 37 °C, 410 nm; highest concentration 400 µg/ml.
The target of test [3] is porcine pancreatic α-amylase (Sus scrofa, UniProt P00690). Kind of test: α-Amylase inhibitory assay. Format: biochemical. The following applies: starch substrate, DNSA, 540 nm; highest concentration 500 µg/ml.
Test [4] concerns Hep3B. The following applies: Hep3B cancer cell line; cited from earlier work.
Test [5] deals with Hep3B. As to conditions: cells shifted to apoptosis; cited from earlier work.
In another test the test system is HepG2. The following applies: HepG2 cancer cell line; cited from earlier work.

≈ marks a conversion by molar mass, not a printed value. Where only a bound is given, the exact number is not on record here.

Take `COc1cc(NC(=O)c2c(-c3ccc(F)cc3)noc2C)c(OC)cc1Cl`: the “IC50 DPPH” value in test [1] amounted to 43.85 ± 0.71 µg/mL (≈ 112 µM). Further, the “IC50 Lipase” value in test [2] came to 358.18 ± 1.32 µg/mL (≈ 917 µM). For the same compound, the “IC50 α-Amylase” value in test [3] was greater than 500 µg/mL. Also, the “IC50 against Hep3B” value in the test on Hep3B [4] was 8.54 µg/mL (≈ 21.9 µM). Besides, in the test with Hep3B [5], the “reduction of the necrosis rate of Hep3B” value was 4 folds.

Consider `Cc1onc(-c2ccc(F)cc2)c1C(=O)Nc1ccccc1`, for which, in test [1], the “IC50 DPPH” value came out at 33.39 ± 0.57 µg/mL (≈ 113 µM). For the same compound, the “IC50 Lipase” value in test [2] was greater than 400 µg/mL. In addition, in test [3], the “IC50 α-Amylase” value was greater than 500 µg/mL. Moreover, in the test on Hep3B [4], the “IC50 against Hep3B” value was 5.76 µg/mL (≈ 19.4 µM). The “IC50 against HepG2” value in the test on HepG2 is 34.64 µg/mL (≈ 117 µM). The “reduction of the necrosis rate of Hep3B” value in the test with Hep3B [5] is given as 4 folds.

`COc1cc(NC(=O)c2c(-c3ccc(F)cc3)noc2C)cc(OC)c1`: in test [1], the “IC50 DPPH” value is 0.47 ± 0.33 µg/mL (≈ 1.32 µM). In addition, the “IC50 Lipase” value in test [2] is greater than 400 µg/mL. Moreover, the “IC50 α-Amylase” value in test [3] is greater than 500 µg/mL.

`COc1ccc(NC(=O)c2c(-c3ccc(F)cc3)noc2C)cc1OC`: in test [1], the “IC50 DPPH” value turned out to be 5.11 ± 0.91 µg/mL (≈ 14.3 µM). Further, the “IC50 Lipase” value in test [2] was determined as 303.90 ± 2.2 µg/mL (≈ 853 µM). Moreover, in test [3], the “IC50 α-Amylase” value was greater than 500 µg/mL. In the test on Hep3B [4], the “IC50 against Hep3B” value was 7.66 µg/mL (≈ 21.5 µM).
